Binding of CDR-mutated scFvs to a peptide of the spike HR2 region

Antigen: PDVDLGDISGINAS, a 14-residue peptide of the SARS-CoV-2 spike HR2 region.

Each scFv is VL, a (GGGGS)3 linker, VH, as in the parent Ab-91, and differs from it in the CDRs of the heavy chain only.
VL: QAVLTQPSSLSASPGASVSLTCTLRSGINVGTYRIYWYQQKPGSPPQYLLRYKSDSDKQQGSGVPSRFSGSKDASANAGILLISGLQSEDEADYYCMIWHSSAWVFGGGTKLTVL
VH: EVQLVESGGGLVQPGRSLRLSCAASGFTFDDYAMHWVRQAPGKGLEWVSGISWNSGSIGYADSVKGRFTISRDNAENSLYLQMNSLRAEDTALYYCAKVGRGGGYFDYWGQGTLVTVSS

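The parent was found by panning a naive human phage display library on the peptide. Library AAYL51 holds single substitutions and randomly drawn double and triple substitutions in the CDRs. The assay is AlphaSeq: two haploid yeast populations carry antibody and antigen on their surface. Binding brings cells together so that they mate, and sequencing counts the barcode pairs among the diploids. A regression on co-assayed BCL2-family reference pairs converts the normalised counts of each replicate to an apparent Kd. Each pool was mated in three replicate cultures.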

Each variant is given by its three heavy chain CDRs, as the data file delimits them; those of the parent are GFTFDDYAMH, GISWNSGSIGYADSVK, VGRGGGYFDY.
Numbers give log10(Kd / nM), so 0 is 1 nM and 3 is 1 µM. Smaller is tighter.
Averages over replicates are reported, and they cover detected replicates only.
An entry "nd" has no value in the source: the pair was not observed among the diploids in any replicate. This suggests poor binding but is not conclusive.
Parent in this assay: reference entry 1.86, copy in this library 0.88.
As a blank, each scFv also met three strains without target: over library AAYL51, 21% of these pairings were detected, typically at 4.54 and seldom below 3.26. Also given: how often the same scFv was detected with the empty control strains.

"mean, log10 nM",seen in,control signals,CDR-H1,CDR-H2,CDR-H3
4.13,1 of 3,1 of 9,GFTEDDYAMH,GVSWNSSSIGYADSVK,VGRGGGYFDY
5.31,1 of 3,3 of 9,GFTFDDYAMR,GISWNSGFIGYADSVK,VGRGGGRFDY
2.79,1 of 3,1 of 9,GFTFDDYAMH,GISFNSGSIGYASSVK,VGRGGGYYDY
5.28,2 of 3,8 of 9,LFTFDDYADH,GISWNSGSIGYADSVK,VGRGGGYFDY
nd,0 of 3,0 of 9,GFTFDDYAMH,GINWNSISIGYADEVK,VGRGGGYFDY
5.94,1 of 3,1 of 9,GFANDDYAMH,GISWNSGSIGYADSVK,VGRGGGYEDY
nd,0 of 3,0 of 9,GFTFDDYAMH,GISWNSGSILYADSVK,VGRMGGYFDY
nd,0 of 3,2 of 9,GMTFDDYAMH,GIKWNSGSIGYADSVK,VGRGGGEFDY
2.98,1 of 3,1 of 9,GFTFDDVAMH,YISWNSGSIGYADSVK,VGRGGWYFDY
5.00,1 of 3,0 of 9,GFTFDDYAMH,GISWNSGSIIYADVVK,VGRGGQYFDY
nd,0 of 3,1 of 9,GFTFDDYFPH,GISWNSGSIGYADSVK,VGRGGEYFDY
4.89,1 of 3,0 of 9,GFTFDDYAMH,GISWYSGSQGYADSVK,VGRGGGYFQY
nd,0 of 3,0 of 9,GFTFDDGAMH,GISWNSGSIGYYDSVK,HGRGGGYFDY
4.38,1 of 3,5 of 9,GFTFDDYAMH,QISWMSGSIGYHDSVK,VGRGGGYFDY
4.42,1 of 3,1 of 9,GFTFDDYAMH,GIAENSVSIGYADSVK,VGRGGGYFDY
5.36,1 of 3,2 of 9,GFTFDDYAMH,GISDNDYSIGYADSVK,VGRGGGYFDY
4.95,1 of 3,2 of 9,GFIFDDTAMH,GISWNSGSIGDADSVK,VGRGGGYFDY
nd,0 of 3,2 of 9,GFTFDDLAMH,GISWNSGSIGYADSVE,VGRGGGTFDY
5.38,3 of 3,6 of 9,GFTFDDYAGH,GISWNSGSIGYADWVK,VGRGGTYFDY
4.90,1 of 3,1 of 9,GFGFDDYAMH,GISWSSGSIGYADSVT,VGRGGGYFDY
4.32,1 of 3,1 of 9,IFTWDDYAMH,GISWNSGSIGYADSVK,VGRGGGYFDY
3.03,1 of 3,1 of 9,GFTIKDKAMH,GISWNSGSIGYADSVK,VGRGGGYFDY
5.55,1 of 3,3 of 9,GVTFDDYAMH,GISWNSGSSGYAQSVK,VGRGGGYFDY
nd,0 of 3,0 of 9,GFTLDDRAYH,GISWNSGSIGYADSVK,VGRGGGYFDY
nd,0 of 3,5 of 9,GFTFDDYAMH,GISWNSGSLGYADSIK,VGRGGGYFEY
4.91,3 of 3,9 of 9,LFTRDDWAMH,GISWNSGSIGYADSVK,VGRGGGYFDY
4.42,1 of 3,0 of 9,GFTFDDQAMH,GISWNSGSIGYADSVK,VGRQGGYFDY
5.16,3 of 3,7 of 9,GMTFDDYAMH,GISRNSGSIGYADSVK,VGRMGGYFDY
nd,0 of 3,0 of 9,GFTFDDYAMH,GINWCSGSIGCADSVK,VGRGGGYFDY
3.73,1 of 3,2 of 9,GHTFDDYAMH,DISWNSGSIGYQDSVK,VGRGGGYFDY
nd,0 of 3,1 of 9,GFTFDDYAMV,GISWNSGSIGYADSVV,VGKGGGYFDY
nd,0 of 3,1 of 9,GFTFDDYAMH,GISWNSGSIEYADSVK,VGRGGLYFGY
4.70,3 of 3,3 of 9,GFTFDDYAMH,GISWGSGSVGYADSVK,VPRGGGYFDY
5.69,1 of 3,1 of 9,GFTFDDMAHH,GISWNSGSIGYADSVK,VHRGGGYFDY
3.74,1 of 3,0 of 9,GFTFDDYAMH,GISWNSGSIGYADSLK,VGRGWGYFHY
1.78,3 of 3,0 of 9,GFTFDDYCMH,GISWNSGSIGYADMVK,VGHGGGYFDY
3.69,1 of 3,1 of 9,GFTFDDYAMH,GQSWNSGSIGYADSVF,EGRGGGYFDY
4.98,2 of 3,7 of 9,AFTFTDYAMH,GISWNSWSIGYADSVK,VGRGGGYFDY
nd,0 of 3,2 of 9,GFTFDDYAMH,RISWNSMSIHYADSVK,VGRGGGYFDY
nd,0 of 3,0 of 9,GFTIDDYAMH,GITWNSGDIGYADSVK,VGRGGGYFDY
nd,0 of 3,0 of 9,GFTFDDYAMH,GIKWNSGSKGYADSVK,VGRGGGYQDY
nd,0 of 3,2 of 9,GFTFDDVAMH,GYSWQSGSIGYADSVK,VGRGGGYFDY
5.55,1 of 3,2 of 9,GFTFDDYAMH,GISWVSGSIGYADSVK,VGRDGGYFDR
nd,0 of 3,0 of 9,GFTFRDKAMH,GISWNSGSIGYADSVK,VGRYGGYFDY
-0.42,3 of 3,4 of 9,GFTFTDPAMH,GISWNSGSIGYADSVK,VGREGGYFDY
4.59,1 of 3,1 of 9,GFTFDDYAMP,GISWNLGSIGYKDSVK,VGRGGGYFDY
nd,0 of 3,1 of 9,GFTFYDYAMH,GISWNSGSIGYADSVN,VGRGGGYFDY
nd,0 of 3,0 of 9,GFTFDDYAKH,GISGNSGSIGYADSVK,VGGGGGYFDY
1.94,3 of 3,2 of 9,GFTFDWYAMH,GISWNSGSIGYADSLK,VGRGGGYFDY
5.58,3 of 3,6 of 9,GETFDDYAMH,GISWNSGSIGYADSVK,VGRAGGYFDF
nd,0 of 3,0 of 9,IFTFDHYAMH,KISWNSGSIGYADSVK,VGRGGGYFDY
2.41,2 of 3,0 of 9,GFTFDDYAMH,GISDNSGSIGYADVVK,VGRGGGIFDY
nd,0 of 3,1 of 9,GFTFDDGAMH,GISWNSGSIGYADSVK,VGRCGGYFDY

Top 3 of the variants detected in all replicates, tightest first:

{"CDR-H1": "GFTFTDPAMH", "CDR-H2": "GISWNSGSIGYADSVK", "CDR-H3": "VGREGGYFDY", "mean, log10 nM": "-0.42", "seen in": "3 of 3", "control signals": "4 of 9"}
{"CDR-H1": "GFTFDDYCMH", "CDR-H2": "GISWNSGSIGYADMVK", "CDR-H3": "VGHGGGYFDY", "mean, log10 nM": "1.78", "seen in": "3 of 3", "control signals": "0 of 9"}
{"CDR-H1": "GFTFDWYAMH", "CDR-H2": "GISWNSGSIGYADSLK", "CDR-H3": "VGRGGGYFDY", "mean, log10 nM": "1.94", "seen in": "3 of 3", "control signals": "2 of 9"}

Values reported by Engelhart et al. 2022, doi:10.1038/s41597-022-01779-4 (FLAb copy).